Data from ChEMBL document CHEMBL1240482, “Synthesis and antiproliferative evaluation of certain indeno[1,2-c]quinoline derivatives. Part 2” (J Med Chem, 2010).
pIC50: −log10 of the molar value.

Target: T1, DNA topoisomerase 1 (Homo sapiens, UniProt P11387)
T1 sequence (P11387 whole entry): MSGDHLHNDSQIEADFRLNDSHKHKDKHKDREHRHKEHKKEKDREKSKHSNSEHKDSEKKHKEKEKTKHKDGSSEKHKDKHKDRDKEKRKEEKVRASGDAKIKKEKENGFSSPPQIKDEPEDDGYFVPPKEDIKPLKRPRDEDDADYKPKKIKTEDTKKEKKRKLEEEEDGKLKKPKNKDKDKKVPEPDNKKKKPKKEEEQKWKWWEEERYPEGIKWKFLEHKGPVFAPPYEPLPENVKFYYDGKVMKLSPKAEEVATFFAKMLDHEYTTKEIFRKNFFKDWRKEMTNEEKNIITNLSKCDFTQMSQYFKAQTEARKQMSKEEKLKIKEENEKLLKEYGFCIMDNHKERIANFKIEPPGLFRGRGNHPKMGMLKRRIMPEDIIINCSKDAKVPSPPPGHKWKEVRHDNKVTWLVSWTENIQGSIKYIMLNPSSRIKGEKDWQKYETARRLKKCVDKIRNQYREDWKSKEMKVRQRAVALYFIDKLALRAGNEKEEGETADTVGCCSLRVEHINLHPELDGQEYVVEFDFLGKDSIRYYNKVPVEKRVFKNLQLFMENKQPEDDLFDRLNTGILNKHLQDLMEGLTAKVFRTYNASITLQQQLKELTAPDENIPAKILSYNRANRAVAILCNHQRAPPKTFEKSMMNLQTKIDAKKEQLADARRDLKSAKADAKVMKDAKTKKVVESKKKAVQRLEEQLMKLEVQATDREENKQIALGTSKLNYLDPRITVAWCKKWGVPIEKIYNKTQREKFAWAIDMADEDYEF
Assay: Inhibition of human topoisomerase 1 assessed as decrease in pBR322 mobility on agarose gel by electrophoresis
Summary of the method: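 Enzyme preincubated with compound before DNA addition; reaction run 30 min at 37 °C and stopped with SDS. Products resolved on 1% agarose, stained with ethidium bromide, quantified by densitometry.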

SMILES: COc1cccc2c1C(=O)c1c(O)c3c(c(O)c1C2=O)C[C@@](O)(C(=O)CO)C[C@@H]3O[C@H]1C[C@H](N)[C@H](O)[C@H](C)O1 [DOXORUBICIN]
- pIC50: 4.70
